# Most compounds without a hit are left out; they make up all but 2.8% or so of the library.
# esBAF inh: inhibitors of esBAF chromatin remodeling in mouse ES cells; Bmi1-luciferase knock-in reporter, 24 h; 100% = twice the neutral-well signal; reporter increase, % at 12.5 µM; 2% of 350,000 active; AID 602393; in the data active means activation above about 40%; inconclusive means no clear call, values can overlap the other calls;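 further: 0% = median of the plate's neutral control wells and 100% = double that signal; a rise in the Bmi1 reporter signal indicates esBAF inhibition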
# Wnt act: activators of Wnt/beta-catenin signaling. Wnt/beta-catenin reporter cell assay, activator, plate reader. activation, % at 9.35 µM. 1.2% of 300,000 active; in the data active means activation above about 30%, passing the limit was not always enough; inconclusive means no clear call, values can overlap the other calls;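 further: 0% = neutral control wells and 100% = positive control wells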
# miR-122 sensor: inhibitors of miR-122 in Huh7 cells; 0.3% of 340,000 active; activation (reporter increase), % at 12.5 µM; Huh7 miR-122 Renilla luciferase sensor, 48 h; neutral wells = 0, positive control = 100;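 active means mean replicate activation score at least 90 and every replicate individually at or above 90; inconclusive means only one of the two criteria met; inactive means neither criterion met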;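 further: higher luciferase means less miR-122 activity so hits act as miR-122 inhibitors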
# MITF TRPM1 HTS: activators of MITF-driven TRPM1 promoter activity in SK-MEL-5 cells; AID 588334; activation, % at 12.5 µM; 0.75% of 300,000 active; SK-MEL-5 TRPM1-promoter luciferase, 24 h; % of positive control, neutral wells = 0;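 active means mean activation of at least 80% with every replicate also reaching 80%; inconclusive means mean reaches 80% but some replicate falls short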;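 further: 0% = neutral control wells and 100% = parthenolide positive control wells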
# PglD DTNB: PglD (C. jejuni) enzyme inhibition; AID 602405; purified PglD enzyme, DTNB colorimetric CoA detection; 0.098% of 360,000 active; inhibition, % at 12.5 µM; in the data active means inhibition above about 16%, passing the limit was not always enough; inconclusive means no clear call, values can overlap the other calls
# UUG fidelity: alters start codon recognition fidelity in yeast; S. cerevisiae UUG-firefly luciferase reporter, luminescence/redox ratio; activity score, % at 18.7 µM; actives 0.13% (n = 350,000); AID 602363;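 active = replicate mean at a twofold rise or more, about +100% in these data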;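 also: firefly luciferase made from a UUG start codon reports start codon fidelity; reporter light over untreated wells divided by growth signal over untreated wells; some hits fall short of that in this replicate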
# An asterisk follows results filed as active; ? = inconclusive; . = no result; [ ] = dose if it differs, or a comment.
# Key to letters: A = esBAF inh; B = Wnt act; C = miR-122 sensor; D = MITF TRPM1 HTS; E = PglD DTNB; F = UUG fidelity
CC(=O)Nc1cccc(NC(=O)c2ccc(C(=O)Nc3cccc(NC(C)=O)c3)nc2)c1
  A: .; B: 30; C: .; D: -4; E: .; F: .

O=C(Nc1ccccc1)c1ccc(C(=O)Nc2ccccc2)nc1
  A: 22; B: 44*; C: -5; D: 55; E: .; F: .

C[C@@H]1CN([C@H](C)CO)C(=O)Cc2cc(NS(C)(=O)=O)ccc2O[C@H]1CN(C)Cc1ccccc1
  A: 1; B: .; C: 3[16.7 µM]; D: .; E: 3; F: 12

Cc1oc(-c2ccc(Cl)cc2)cc1C(=O)O
  A: 56*; B: 23; C: .; D: 43; E: .; F: .

COc1ccc(C(O)c2ncc(-c3ccc4ccccc4c3)[nH]2)cc1 (stereo not drawn)
  A: 14; B: .; C: 3; D: .; E: -2; F: -7

OC(c1ccc(F)cc1)c1ncc(-c2ccc3ccccc3c2)[nH]1 (stereo not drawn)
  A: 76*; B: 2; C: 2; D: .; E: 1; F: -19

Cc1ccc(C(O)c2ncc(-c3ccc4ccccc4c3)[nH]2)cc1 (stereo not drawn)
  A: 53*; B: -2; C: 3; D: .; E: -2; F: 10

C[C@H](CO)N1C[C@H](C)[C@H](CN(C)S(C)(=O)=O)OCCCC[C@H](C)Oc2ccc(NS(C)(=O)=O)cc2C1=O
  A: 4; B: .; C: 2[16.7 µM]; D: .; E: 1; F: -21

COc1cccc(-c2cc3nc(NCc4ccc5occc5c4)n(C)c(=O)c3s2)c1
  A: 61*; B: 30; C: 8; D: .; E: -1; F: -22

Cn1c(NCCc2ccncc2)nc2cc(-c3ccsc3)sc2c1=O
  A: 10; B: -3; C: 2; D: .; E: 1; F: .

CN(C)CCCNc1nc2cc(-c3ccc4c(ccn4C)c3)sc2c(=O)n1C
  A: 67*; B: 1; C: -6; D: .; E: -7; F: 19

COc1cccc(CNc2nc3cc(-c4ccc(F)cc4)sc3c(=O)n2C)c1OC
  A: 8; B: -1; C: -9; D: .; E: 4; F: -16

Cn1c(NCc2ccc3occc3c2)nc2cc(-c3cccc(C(F)(F)F)c3)sc2c1=O
  A: 0; B: -4; C: -4; D: .; E: 2; F: -8

COc1cccc(CNc2nc3cc(-c4ccc(C)cc4)sc3c(=O)n2C)c1OC
  A: 54*; B: 0; C: -7; D: .; E: -1; F: .

Cc1ccc(-c2cc3nc(NCCc4ccncc4)n(C)c(=O)c3s2)cc1
  A: 16; B: 42*; C: 4; D: .; E: -2; F: -13

CN(C)CCCNc1nc2cc(-c3ccsc3)sc2c(=O)n1C
  A: 2; B: -3; C: -6; D: .; E: 0; F: .

Cc1noc(C)c1NC(=O)Nc1ccc2c(c1)C(=O)N([C@H](C)CO)C[C@@H](C)[C@@H](CN(C)Cc1ccc(C(=O)O)cc1)O2
  A: -1; B: .; C: -2[16.7 µM]; D: .; E: -2; F: -11

C[C@@H]1CCCCO[C@@H](CN(C)S(=O)(=O)c2ccc(Cl)cc2)[C@H](C)CN([C@@H](C)CO)C(=O)c2cc(NC(=O)CCCN(C)C)ccc2O1
  A: 3; B: .; C: 5[16.7 µM]; D: .; E: 1; F: -3

COc1ccc(CN(C)C[C@H]2OCCCC[C@H](C)Oc3ccc(NC(=O)NC(C)C)cc3C(=O)N([C@@H](C)CO)C[C@@H]2C)cc1
  A: -7; B: .; C: -1[16.7 µM]; D: .; E: 1; F: 20

COc1cccc(-c2ccc3c(c2)[C@@H]2[C@@H](CCN2S(=O)(=O)c2ccccc2F)[C@H](CO)N3)c1
  A: 5; B: .; C: -6[16.7 µM]; D: .; E: 0; F: -26

CN(C)CCCNC(=O)C[C@H]1CC[C@H]2[C@H](COc3ccc(NC(=O)c4cccc(F)c4)cc3C(=O)N2C)O1
  A: 10; B: .; C: 17[16.7 µM]; D: .; E: 1; F: -9

O=C(Nc1ccc2c(c1)OCO2)c1cc(-c2ccc(O)cc2)on1
  A: 46*; B: 21; C: -6; D: 77; E: -1; F: -13

O=C(Nc1ccc2c(c1)OCO2)c1cc(-c2cccc(O)c2)on1
  A: 43*; B: 21; C: -3; D: 115*; E: -4; F: 1

O=C(NCc1ccc2c(c1)OCO2)c1cc(-c2ccccc2Cl)on1
  A: 5; B: -4; C: 3; D: -1; E: 3; F: 5

O=C(Nc1ccc2c(c1)OCCO2)C1CC(c2ccccc2Cl)=NO1 (stereo not drawn)
  A: 60*; B: 11; C: -2; D: ?; E: -1; F: -1

# Next section; it opens with the 3 that closed the last part.
# Key to letters: A = esBAF inh; B = Wnt act; C = miR-122 sensor; D = MITF TRPM1 HTS; E = PglD DTNB; F = UUG fidelity
O=C(Nc1ccc2c(c1)OCO2)c1cc(-c2cccc(O)c2)on1
  A: 43*; B: 21; C: -3; D: 115*; E: -4; F: 1

O=C(NCc1ccc2c(c1)OCO2)c1cc(-c2ccccc2Cl)on1
  A: 5; B: -4; C: 3; D: -1; E: 3; F: 5

O=C(Nc1ccc2c(c1)OCCO2)C1CC(c2ccccc2Cl)=NO1 (stereo not drawn)
  A: 60*; B: 11; C: -2; D: ?; E: -1; F: -1

O=C(Nc1ccc2c(c1)OCO2)c1cc(-c2ccccc2Cl)on1
  A: 60*; B: 20; C: -3; D: ?; E: -2; F: -17

Cc1noc(C)c1NC(=O)Nc1ccc2c(c1)C(=O)N([C@H](C)CO)C[C@@H](C)[C@H](CN(C)C(=O)Nc1c(C)noc1C)OCCCC[C@@H](C)O2
  A: 0; B: .; C: 10[16.7 µM]; D: .; E: 10; F: -2

Cc1ccc(S(=O)(=O)Nc2ccc3c(c2)C(=O)N([C@@H](C)CO)C[C@@H](C)[C@@H](CN(C)Cc2ccc(C(=O)O)cc2)OCCCC[C@H](C)O3)cc1
  A: 1; B: .; C: 5[16.7 µM]; D: .; E: 2; F: 16

CCNC(=O)[C@@H]1[C@@H](CO)[C@@H]2Cn3c(ccc(-c4ccc(OC)cc4)c3=O)[C@@H]2N1Cc1nccs1
  A: -5; B: .; C: .; D: .; E: 2; F: .

O=C(Nc1cccc(O)c1)c1cc(-c2ccco2)on1
  A: 73*; B: .; C: -5; D: 75; E: -1; F: -54

O=C(Nc1cccnc1)c1cc(-c2ccc(Cl)c(Cl)c2)on1
  A: 7; B: 14; C: 0; D: 16; E: -1; F: -10

O=C(Nc1cccnc1)c1cc(-c2ccc3c(c2)OCO3)on1
  A: 69*; B: .; C: 0; D: 22; E: -3; F: -35

Cc1ccc2c(CN3CCCc4ccccc43)cc(=O)oc2c1C
  A: 14; B: 9; C: 147*; D: -6; E: 0; F: 14

CCOC(=O)c1cnc2c(-c3ccccc3)cnn2c1N
  A: -15; B: 38*; C: 0; D: 59; E: -3; F: -27

CCOC(=O)c1cnn(-c2ccccn2)c1N
  A: 40; B: .; C: -2; D: 102*; E: 0; F: -10

CCOC(=O)c1cnc2c(-c3ccccc3)c(C)nn2c1N
  A: 29; B: 14; C: -2; D: .; E: 4; F: -20

COc1ccc(NC(=S)Nc2cc(C)ccn2)c(OC)c1
  A: 68*; B: .; C: .; D: 25; E: -3; F: -12

COc1ccc(NC(=S)Nc2ccc(OC)cc2OC)c(OC)c1
  A: .; B: 3; C: .; D: 4; E: .; F: .

COc1ccc(NC(=S)Nc2cccnc2)c(OC)c1
  A: -14; B: -1; C: 1; D: 2; E: 1; F: 5

COc1ccc(NC(=S)Nc2ccccn2)c(OC)c1
  A: 69*; B: 55*; C: 9; D: .; E: 6; F: -15

CCOc1ccc(N/C=C/C(=O)c2ccc3ccccc3c2)c([N+](=O)[O-])c1
  A: 50*; B: 5; C: -14; D: 78; E: -4; F: -20

CCOc1ccc(N/C=C/C(=O)c2ccc(C)cc2)c([N+](=O)[O-])c1
  A: .; B: .; C: 2; D: 88*; E: .; F: .

CCOc1ccc(NC(=O)Cc2cccc3ccccc23)c([N+](=O)[O-])c1
  A: .; B: 1; C: .; D: 0; E: .; F: .

Cc1ccc(C(=O)/C=C/Nc2ccc([N+](=O)[O-])cc2Br)cc1
  A: ?; B: 11; C: 1; D: 87*; E: 1; F: -5

Cc1noc(C)c1NC(=O)Nc1cccc2c1O[C@@H](CN(C)S(=O)(=O)c1cn(C)cn1)[C@@H](C)CN([C@@H](C)CO)C2=O
  A: -3; B: .; C: 1[16.7 µM]; D: .; E: -3; F: 0

C[C@H]1CN([C@@H](C)CO)C(=O)c2cc(NC(=O)CCC(F)(F)F)ccc2O[C@@H]1CN(C)C
  A: 0; B: .; C: 1[16.7 µM]; D: .; E: 1; F: -17

Nc1c(Br)cc2oc(-c3ccccc3)nc2c1Br
  A: 58*; B: .; C: 11; D: 36; E: -2; F: -11

COc1ccc(-c2nc3c(Br)c(N)c(Br)cc3o2)cc1
  A: .; B: 24; C: 19; D: 0; E: 0; F: -4

# Just esBAF inh (two entries from above):
SMILES | esBAF inh
Cc1ccc(S(=O)(=O)Nc2ccc3c(c2)C(=O)N([C@@H](C)CO)C[C@@H](C)[C@@H](CN(C)Cc2ccc(C(=O)O)cc2)OCCCC[C@H](C)O3)cc1 | 1
CCNC(=O)[C@@H]1[C@@H](CO)[C@@H]2Cn3c(ccc(-c4ccc(OC)cc4)c3=O)[C@@H]2N1Cc1nccs1 | -5

# Screening data deposited in PubChem by Broad Institute.
